Test [1] relates to pGL3(4X48) Sox9 responsive reporter gene. The experiment in a line: pGL3(4X48) luciferase reporter gene activity in transiently transfected primary limb mesenchymal cultures. In kind it is cell-based, mouse. The source says:
To increase reporter gene sensitivity, the Sox9 responsive reporter gene from 4X48-p89 luciferase (14) was subcloned into pGL3-basic (Promega). A fragment containing the reiterated (4 X 48) Sox9 binding sequence upstream of the mouse col II minimal promoter (−89 to +13) was liberated from 4X48-p89 plasmid by digestion with Bam HI and Hind III. This fragment was subcloned into the Bgl II and […] sites of pGL3-basic (Promega) to generate pGL3(4X48). To generate an EGFP-based col II reporter, the luciferase gene within pGL3(4X48) was replaced with EGFP-N1 (Clontech). For expression of genes in primary cultures a modified version of pSG5 (Stratagene), pSG5HS, was used which contains two additional restriction endonuclease sites, Hind III and Spe I. The myogenin promoter-luciferase construct was made by subcloning a 1.14 kB fragment of the myogenin promoter (containing the region from pGZ1092) from plasmid pGBB into pGL3-basic. The cardiac actin promoter-luciferase vector was generated by subcloning a fragment of the cardiac actin promoter from −440 to +6 into pGL3-basic. […]
Analysis of reporter gene activity using the Dual Luciferase Assay System was done following the manufacturer's instructions (Promega). […] Firefly and renilla luciferase activities were determined using 40 μl of lysate in a 96-well plate reading luminometer (Molecular Devices).
In general terms: Reporter assays use an easily measured gene product as a stand-in for the process of interest.

For the next test, the system named is limb mesenchymal cells. Put plainly: Alcian blue staining of cartilage nodules in primary limb mesenchymal cultures. In kind it is cell-based, mouse. The note with it: 10 ng/ml, 2 and 4 days, vs untreated cultures. As for the experimental part: Limb mesenchymal cells were harvested from embryonic age 11.25-11.75 mouse embryos as previously described (19). To establish proximal or distal cultures the proximal half of each limb bud was separated from the distal half, and each pool of limb fragments was processed separately. The cells were resuspended at a density of 1.5−2×10^7 cells/ml. For transfection purposes, cells were mixed with a DNA/FuGene6 mixture in a 2:1 ratio. FuGene6-DNA mixtures were prepared according to the manufacturer's instructions (Roche Biomolecular). Briefly, 1 μg of reporter, 1 μg of expression vector and 0.05 μg of pRLSV40 (Promega) were mixed for a total of ˜2 μg DNA in 100 μl of media and FuGene6. Fifty microlitres of the DNA mixture was transferred into a sterile 1.5 ml eppendorf tube, followed by 100 μl of cells. Cells were gently triturated and 10 μl was used to seed a single well of a 24-well culture dish. After 1.5 hrs in a humidified CO2 incubator, 1 ml of media containing compounds of interest was added to each well and was subsequently replaced 24 hrs following transfection.
Alcian blue staining was performed on fixed cultures also as described (4). Mouse anti-MyHC monoclonal antibody supernatant was used to observe those cells within primary limb mesenchymal cultures that are myogenic (2). […]

Test [2] relates to Sox9 and col II expression. The experiment in a line: Northern blot analysis of Sox9 and col II expression in limb mesenchymal cultures. In kind it is cell-based, mouse. The note with it: treated cultures, Northern blot (FIG. 3G). As for the experimental part: Northern blots were carried out using total RNA from limb mesenchymal cultures, as previously described (19). Briefly, total RNA was extracted from cells 2 or 4 days after cultures were initiated. Cells were treated with media alone or with 10 ng/ml BMP-4. Synthesis of the Col II cDNA fragment used was as described previously (19). The Sox9 cDNA probe was made using an EST clone, GenBank accession number AI594348 (Research Genetics). The Sox9 fragment was released from pT7T3 using Eco RI and Not I.

Another test deals with primary chondrocytes. The settings on record: cited from earlier work.

Consider bone morphogenetic protein-2 [BMP-2], for which the “normalized RLU (pGL3(4X48) reporter gene activity)” value in test [1] (protein added at 10 ng/ml, RLU values normalized to control reporter activity) came out at 1.9. The “increase in reporter gene activity” value in test [1] (treatment of reporter gene-transfected cells, 10 ng/ml (FIG. 3H)) is recorded as about 2 fold. Further, the “cartilage nodule number (alcian blue)” value with limb mesenchymal cells is “dramatic increase in nodule number”. Further, in test [2], the “Sox9 and col II expression” value was “increase in Sox9 and col II expression”. For the same substance, the “effect on reporter gene activity / differentiation reported by Murakami et al.” value in the test on primary chondrocytes is reported as “did not see any response”.

Source of the values: US20020061514A1, “Assay for identifying modulators of chondrogenesis” (priority 2000, published 2002).
